Measurements: patent publication US4764522A, “Ethylenediamine monoamides” (Hoffmann-La Roche Inc., priority 1984, dated 1988)

By UniProt entry, the sequences of proteins in these tests, tags left out.
UniProt P19643, whole entry: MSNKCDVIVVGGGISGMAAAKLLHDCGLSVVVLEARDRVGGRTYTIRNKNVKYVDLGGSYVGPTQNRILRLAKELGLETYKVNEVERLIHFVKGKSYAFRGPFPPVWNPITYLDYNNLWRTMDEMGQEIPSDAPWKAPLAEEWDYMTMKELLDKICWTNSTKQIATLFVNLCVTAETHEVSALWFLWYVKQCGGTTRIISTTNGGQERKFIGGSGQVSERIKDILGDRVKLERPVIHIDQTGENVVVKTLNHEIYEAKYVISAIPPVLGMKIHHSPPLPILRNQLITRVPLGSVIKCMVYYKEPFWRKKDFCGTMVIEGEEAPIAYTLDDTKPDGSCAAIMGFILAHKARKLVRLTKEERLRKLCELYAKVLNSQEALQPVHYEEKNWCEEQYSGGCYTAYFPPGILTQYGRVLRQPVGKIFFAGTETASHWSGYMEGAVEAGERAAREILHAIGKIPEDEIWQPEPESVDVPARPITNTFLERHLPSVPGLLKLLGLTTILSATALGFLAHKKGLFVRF

Target: T1, monoamine oxidase (MAO) (Rattus norvegicus, UniProt P19643)
T1 construct: from tissue; host or cells: rat brain homogenate (ex vivo, two hours after p.o. dosing)
Assay: MAO inhibiting activity measured in homogenates of the brain two hours after p.o. administration to rats (phenethylamine as substrate)
Assay type: in vivo
Settings: po, 2 h, read-out: ED50 (MAO inhibiting activity)
Procedure: The MAO inhibiting activity of the compounds in accordance with the invention can be determined using standard methods. Thus, the substances to be tested were administered p.o. to rats.

Work on `Cl.NCCNC(=O)c1ccc(Cl)cn1` [N-(2-aminoethyl)-5-chloropyridine-2-carboxamide hydrochloride] yielded an ED50 of 0.161 µmol/kg.
